{"source": "ChEMBL document CHEMBL1833821", "about": "“Defining the structural parameters that confer anticonvulsant activity by the site-by-site modification of (R)-N'-benzyl 2-amino-3-methylbutanamide” (J Med Chem, 2011)", "organism": "Mus musculus", "test": "Protective index, ratio of TD50 for albino CF1 mouse by rotarod test to ED50 for albino CF1 mouse by maximal electroshock seizures test", "type": "functional", "procedure,_shortened": "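Mouse protective index calculated as rotorod TD50 divided by MES ED50, both from ip dosing of male CF-1 mice at the NINDS ASP.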", "data": [{"compound": "O=C1NC(=O)C(c2ccccc2)(c2ccccc2)N1", "note": "[PHENYTOIN]", "values": [{"measurement": "PI", "result": 2.8}]}]}
